Results on one compound are retold here after patent publication US20060276520A1 (priority 2002, published 2006).

Protein sequences, listed by entry. Tags and fused reporters are not part of them.
UniProt Q9NYG5, whole entry: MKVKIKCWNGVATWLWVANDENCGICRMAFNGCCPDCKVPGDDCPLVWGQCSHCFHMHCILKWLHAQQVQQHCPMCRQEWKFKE
UniProt Q9UJX6, whole entry: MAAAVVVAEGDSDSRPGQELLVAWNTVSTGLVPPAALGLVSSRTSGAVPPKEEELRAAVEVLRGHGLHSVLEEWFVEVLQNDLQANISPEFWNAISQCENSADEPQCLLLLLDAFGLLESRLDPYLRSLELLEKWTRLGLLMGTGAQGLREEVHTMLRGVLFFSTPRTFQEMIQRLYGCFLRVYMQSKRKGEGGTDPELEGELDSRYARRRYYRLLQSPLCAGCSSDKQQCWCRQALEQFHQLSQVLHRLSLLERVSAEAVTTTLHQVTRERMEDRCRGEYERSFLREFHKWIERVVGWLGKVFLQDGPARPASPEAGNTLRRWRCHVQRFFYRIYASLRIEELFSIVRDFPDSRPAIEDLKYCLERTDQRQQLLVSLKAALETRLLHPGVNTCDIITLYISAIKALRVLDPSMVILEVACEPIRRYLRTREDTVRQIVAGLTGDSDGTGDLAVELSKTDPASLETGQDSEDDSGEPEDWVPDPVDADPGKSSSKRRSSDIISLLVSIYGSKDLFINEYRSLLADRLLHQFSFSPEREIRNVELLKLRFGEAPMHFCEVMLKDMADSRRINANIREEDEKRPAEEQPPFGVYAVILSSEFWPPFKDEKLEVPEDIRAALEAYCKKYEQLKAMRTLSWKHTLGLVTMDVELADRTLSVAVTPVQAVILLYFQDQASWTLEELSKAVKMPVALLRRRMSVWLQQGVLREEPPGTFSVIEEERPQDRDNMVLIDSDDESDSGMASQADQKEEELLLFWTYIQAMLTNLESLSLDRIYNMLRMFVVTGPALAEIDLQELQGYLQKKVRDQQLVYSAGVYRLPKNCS

The test addresses APC2/APC11 (Homo sapiens, UniProt Q9NYG5+Q9UJX6).

The term pIC50 denotes −log10 of the IC50, conventionally taken in molar units. Higher therefore signals a small IC50.

pIC50: −log10 of the molar value.

Compound `O=C(O)c1ccc(-c2ccc(/C=C3\SC(=S)N(C4CCCCC4)C3=O)o2)cc1` gave a pIC50 of 6.40.
